In US6790958B2, “Purine inhibitors of cyclin dependent kinase 2 & IKBA” (priority 1996, dated 2004):
Values after ≈ are worked out from the molar mass of the structure shown.

Tests used:
CDK2 = CDK2 (Homo sapiens, UniProt P24941); experiment: CDK2 assay (histone H1 phosphorylation, 32P-ATP filter assay); assay type: biochemical; conditions: concentration required to inhibit CDK2 activity by 50%; histone H1, 30 μM ATP, 30° C., 30 min
[1] = system: rat aortic smooth muscle cells; experiment: Cell proliferation assay, rat aortic smooth muscle cells (MTS); assay type: cell-based; conditions: 48 hr incubation

Row | IC50 (μg/mL) enzyme (CDK2) [µg/mL] | Structure (SMILES) | IC50 (μg/mL) cells [1] [µg/mL]
1 | 0.43 (≈ 0.96 µM) | CC(C)n1cnc2c(NCc3ccc(Cl)cc3)nc(N(CCO)CCNCCO)nc21 | 
2 | >60 | COc1ccc(CNc2nc(Cl)nc3c2ncn3C(F)(F)F)cc1 | 
3 | 0.07 (≈ 0.173 µM) | CC(C)n1cnc2c(NCc3ccc(Cl)cc3)nc(N(CCN)CCO)nc21 [2-[(2-aminoethyl)(6-{[(4-chlorophenyl)methyl]amino}-9-(methylethyl)purin-2-yl)amino]ethan-1-ol] | 0.2 (≈ 0.495 µM)

Continued, compound first:

Row | Structure (SMILES) | IC50 (μg/mL) enzyme (CDK2) [µg/mL] | IC50 (μg/mL) cells [1] [µg/mL]
4 | CC(C)n1cnc2c(NCc3ccc(Cl)cc3)nc(NCCNCCO)nc21 | 2.02 (≈ 5 µM) | 
5 | COC(=O)c1ccc(Cn2cnc3c(NCc4ccc(OC)cc4)nc(Cl)nc32)cc1 | 60 (≈ 137 µM) | 
6 | CC(N)CNc1nc(NCc2ccc(Cl)cc2)c2ncn(C(C)C)c2n1 (centres unmarked) [{2-[(2-aminopropyl)amino]-9-(methylethyl)purin-6-yl}[(4-chlorophenyl)methyl]amine] | 0.05 (≈ 0.134 µM) | 0.1 (≈ 0.267 µM)
